Data set [1] is described as follows: Release from 10 wt % bifunctional UPy-PEG10k hydrogel into PBS. It counts as physicochemical. Here is the method:
The UPy-PEG10k liquid carrier composition was prepared by dissolving the UPy-PEG10k powder in PBS at elevated pH by stirring at 70° C. for 1 h using a magnetic stirrer (e.g. 10 mg in 90 μl PBS pH 11.7 for a 10 wt % hydrogel). Afterwards the viscous solution was cooled to RT with a resulting pH of approximately 9.0. MPC was added from 30 mM DMSO stock solution to final concentrations of 3 mM or 0.3 mM, resulting in a maximum of 10% DMSO in the final product. The obtained composition is a liquid composition at this pH.
A liquid carrier composition comprising MPC was prepared as described in example 4. […] 100 μL of the solutions were transferred to Millicell hanging cell culture inserts (PIEP12R48/MCEP24H48) and immediately placed in a 24-well plate with 600 μL PBS per well. Contact with the neutral PBS through the membrane of the insert results in gelation of the liquid carrier, forming the hydrogel. At set time-points the PBS was refreshed and the removed PBS was analyzed for MMC or MPC content. Analysis was performed by measuring UV absorption and converted to concentration via predetermined standard curves. MPC gels were removed from the inserts after approximately two weeks by removing the membrane of the insert and gently pushing the still intact gel out. Gels were then dissolved in 1 mL basic PBS and after complete dissolution the concentration of MPC remaining in the gel was determined. […] On the contrary, MPC is released from the hydrogel in a controlled way over two weeks (FIG. 5B). […]. Release of MPC can be correlated to the erosion of the hydrogel. The initial goal to couple cholesterol to MMC to slow down the release from the hydrogel is accomplished hereby.

A short description of data set [2]: Stability measurements by UV absorption in PBS. The note with it: 200 mg/L, day 0-13.
The subject of another data set is CC531 cells. The data set is described as follows: Release and toxicity: MTT on cells incubated below drug-loaded hydrogel inserts. The note with it: 10 wt % UPy-PEG10k hydrogel, total 1.8 mM.

“Also recorded” adds a separate entry of the source.

The values that follow come from patent publication US20200164078A1, “APPLICABLE CHEMICAL COMPOSITION COMPRISING AN AGENT CONJUGATED TO A HYDROPHOBIC MOIETY AND A CARRIER” (TECHNISCHE UNIVERSITEIT EINDHOVEN, priority 2017, published 2020).

For the substance Mitomycin-PEG24-Cholesterol [MPC], the “Release (%)” value in data set [1] (0.3 mM in gel, Gel Dissolved (after approximately two weeks, including compound remaining in gel)) came out at 95.21%; in data set [1] (0.3 mM in gel, time 0.04 day) it was 3.28%; in data set [1] (0.3 mM in gel, time 0.21 day), 5.35%; in data set [1] (0.3 mM in gel, time 0.88 day) it was 8.33%; in data set [1] (0.3 mM in gel, time 5.83 day), 13.43%; in data set [1] (0.3 mM in gel, time 14.00 day), 26.12%. Further, the “Release (%)” value in data set [1] (3 mM in gel, Gel Dissolved (after approximately two weeks, including compound remaining in gel)) was 93.33%; in data set [1] (3 mM in gel, time 0.13 day), 3.20%; in data set [1] (3 mM in gel, time 0.88 day) it was 6.63%; in data set [1] (3 mM in gel, time 2.92 day) it was 10.84%; in data set [1] (3 mM in gel, time 8.00 day), 18.31%; in data set [1] (3 mM in gel, time 15.83 day), 26.41%. In addition, the “Duration of controlled release from the hydrogel” value in data set [1] (10 wt % UPy-PEG10k hydrogel) is reported as “two weeks”. In addition, the “Stability (UV absorption spectra)” value in data set [2] (pH 6.5, 37° C.) is “almost no degradation; also recorded: stable over time”; in data set [2] (pH 7.4, 4° C.), “stable”; in data set [2] (pH 7.4, 37° C.), “stable”. The “Cytotoxicity after release from hydrogel, short term (immediately / first day)” value with CC531 cells is “barely an effect”. Further, the “Duration of cytotoxic effect after release from hydrogel” value in the data set on CC531 cells is not below 18 days. Moreover, in the data set with CC531 cells (gels transferred to freshly seeded cells), the “Cytotoxicity after release from hydrogel, long term (after a few days up to 18 days)” value was “long term cytotoxicity”.
